{"sequences": {"note": "Protein sequences, listed by entry. Tags and fused reporters are not part of them. Residues count along the entry.", "UniProt Q05397, whole entry": "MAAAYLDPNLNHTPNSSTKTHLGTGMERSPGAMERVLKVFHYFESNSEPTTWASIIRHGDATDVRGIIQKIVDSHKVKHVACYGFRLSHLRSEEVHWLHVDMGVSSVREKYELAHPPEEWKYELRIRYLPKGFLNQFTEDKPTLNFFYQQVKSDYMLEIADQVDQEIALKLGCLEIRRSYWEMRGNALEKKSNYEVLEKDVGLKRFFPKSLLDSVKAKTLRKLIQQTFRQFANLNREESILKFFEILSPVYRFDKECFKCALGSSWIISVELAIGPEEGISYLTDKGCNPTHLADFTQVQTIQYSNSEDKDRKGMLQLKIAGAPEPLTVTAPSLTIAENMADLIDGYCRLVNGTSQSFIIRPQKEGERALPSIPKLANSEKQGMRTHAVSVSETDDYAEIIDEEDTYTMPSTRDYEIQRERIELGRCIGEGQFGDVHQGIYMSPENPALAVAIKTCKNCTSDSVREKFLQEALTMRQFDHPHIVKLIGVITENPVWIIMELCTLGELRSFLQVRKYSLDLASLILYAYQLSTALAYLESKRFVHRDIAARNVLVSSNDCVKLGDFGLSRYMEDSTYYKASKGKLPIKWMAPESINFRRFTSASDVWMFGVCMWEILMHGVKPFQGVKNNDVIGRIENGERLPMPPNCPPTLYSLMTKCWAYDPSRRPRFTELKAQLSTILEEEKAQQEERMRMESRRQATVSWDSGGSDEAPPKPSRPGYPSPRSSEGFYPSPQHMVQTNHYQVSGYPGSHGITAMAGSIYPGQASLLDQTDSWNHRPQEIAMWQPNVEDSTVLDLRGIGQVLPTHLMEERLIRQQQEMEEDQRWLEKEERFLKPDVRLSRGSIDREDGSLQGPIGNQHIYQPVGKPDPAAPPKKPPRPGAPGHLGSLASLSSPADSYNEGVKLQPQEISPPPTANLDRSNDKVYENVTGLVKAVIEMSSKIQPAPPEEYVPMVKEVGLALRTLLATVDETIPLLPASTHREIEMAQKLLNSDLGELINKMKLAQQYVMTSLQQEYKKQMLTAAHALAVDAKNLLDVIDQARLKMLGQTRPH", "UniProt Q05397, 422-680 limits assumed": "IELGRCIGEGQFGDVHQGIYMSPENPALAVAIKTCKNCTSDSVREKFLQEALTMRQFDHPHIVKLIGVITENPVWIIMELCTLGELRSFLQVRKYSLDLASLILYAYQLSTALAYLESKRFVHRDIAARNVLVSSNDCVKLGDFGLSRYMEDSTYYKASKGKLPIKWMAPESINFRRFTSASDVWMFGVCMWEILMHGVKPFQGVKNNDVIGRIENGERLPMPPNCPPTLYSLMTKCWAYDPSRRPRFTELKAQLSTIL", "UniProt Q14289, whole entry": "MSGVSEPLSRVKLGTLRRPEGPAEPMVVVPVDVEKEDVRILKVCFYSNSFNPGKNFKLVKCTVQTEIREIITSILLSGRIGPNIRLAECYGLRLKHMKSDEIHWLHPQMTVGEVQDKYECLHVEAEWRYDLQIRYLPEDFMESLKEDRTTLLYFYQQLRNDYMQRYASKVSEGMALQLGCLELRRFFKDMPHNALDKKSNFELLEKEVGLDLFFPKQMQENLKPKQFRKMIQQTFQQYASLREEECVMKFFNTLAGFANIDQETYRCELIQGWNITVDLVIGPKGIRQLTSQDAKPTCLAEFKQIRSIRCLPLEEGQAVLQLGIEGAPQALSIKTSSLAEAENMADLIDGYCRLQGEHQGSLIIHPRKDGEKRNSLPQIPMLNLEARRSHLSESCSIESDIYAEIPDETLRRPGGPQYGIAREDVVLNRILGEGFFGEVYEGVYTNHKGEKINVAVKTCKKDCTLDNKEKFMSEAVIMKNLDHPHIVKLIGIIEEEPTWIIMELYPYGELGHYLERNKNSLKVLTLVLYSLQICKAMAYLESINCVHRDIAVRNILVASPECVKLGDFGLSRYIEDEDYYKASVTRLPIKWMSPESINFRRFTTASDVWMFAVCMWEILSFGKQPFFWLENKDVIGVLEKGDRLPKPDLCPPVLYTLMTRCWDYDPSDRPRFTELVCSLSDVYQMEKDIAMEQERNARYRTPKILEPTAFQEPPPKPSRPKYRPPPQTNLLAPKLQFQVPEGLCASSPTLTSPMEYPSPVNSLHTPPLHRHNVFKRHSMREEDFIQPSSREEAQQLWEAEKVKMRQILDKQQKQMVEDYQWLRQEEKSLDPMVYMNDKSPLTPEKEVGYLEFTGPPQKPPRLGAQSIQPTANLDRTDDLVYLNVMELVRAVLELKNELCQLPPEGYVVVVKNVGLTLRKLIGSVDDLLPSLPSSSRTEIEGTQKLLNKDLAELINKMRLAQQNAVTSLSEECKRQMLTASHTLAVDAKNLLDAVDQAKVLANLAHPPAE"}, "source": "patent US20240024333A1", "about": "“USE OF SMALL MOLECULE FAK ACTIVATORS TO PROMOTE MUCOSAL HEALING” (Regents of the University of Minnesota, priority 2020, published 2024)", "key": {"FAK": {"target": "T1, FAK (Homo sapiens, UniProt Q05397)", "T1 construct": "Suspended cells were then treated with DMSO (0.1%) or small molecules for 1 hour before harvesting for Western blotting; endogenous in cells; host or cells: Caco-2 (human, ATCC)", "assay": "Cell-based FAK-Tyr-397 activation (Western blot, Caco-2 cells)", "conditions": "for FAK activation / FAK-Tyr-397 phosphorylation (in words): vs. DMSO vehicle control"}, "FAK 35 kD kinase domain": {"target": "FAK 35 kD kinase domain (Homo sapiens, UniProt Q05397)", "assay": "In vitro kinase assay with purified FAK kinase domain"}, "[1]": {"test_system": "ischemic ileal mucosal ulcers", "assay": "Ischemic ileal ulcer model (acetic-acid-soaked discs on serosa)", "design": "species or system mice", "conditions": "in vivo"}, "Pyk2": {"target": "T2, Pyk2 (Homo sapiens, UniProt Q14289)", "T2 construct": "endogenous in cells; host or cells: Caco-2", "assay": "Pyk2 activation in intact cells", "format": "cell-based"}, "mice": {"test_system": "mice", "conditions": "mouse, in vivo"}, "Src": {"target": "T3, Src (Homo sapiens, UniProt P12931)", "T3 construct": "endogenous in cells; host or cells: Caco-2", "assay": "Src activation in intact cells", "format": "cell-based"}, "[2]": {"assay": "B/P ratio and blood-brain barrier crossing", "format": "in vivo", "conditions": "2 h"}}, "note": "“Also recorded” adds a separate entry of the source.", "data": [{"smiles": "CN(C)C(CNC(=O)Nc1cc(C(F)(F)F)ccc1N1CCOCC1)c1ccncc1", "note": "(stereo not drawn) [Compound 39]", "values": [{"measurement": "FAK activation / FAK-Tyr-397 phosphorylation (in words)", "setting": "FAK", "value": "ineffective"}]}, {"smiles": "CN(C)C(CNC(=O)Nc1cc(C(F)(F)F)ccc1N1CCOCC1)c1ccncc1", "note": "(stereo not drawn) [Compound 40]", "values": [{"measurement": "EC50", "setting": "FAK", "value": "< 10", "unit": "nM"}, {"measurement": "concentration level of FAK activation (in words)", "setting": "FAK", "value": "picomolar concentrations"}, {"measurement": "concentration as low as which FAK is activated", "setting": "FAK; Caco-2 cells", "value": 100, "unit": "pM"}, {"measurement": "FAK activation / FAK-Tyr-397 phosphorylation (in words)", "setting": "FAK", "value": "activates FAK in intact cells; also recorded: activates FAK within Caco-2 cells"}, {"measurement": "Vmax of FAK kinase domain (in words)", "setting": "FAK 35 kD kinase domain; ATP-ADP conversion / ATP-binding", "value": "increases its Vmax"}, {"measurement": "ATP to ADP conversion by / activation of FAK kinase domain (in words)", "setting": "FAK 35 kD kinase domain; purified protein", "value": "activates FAK directly"}, {"measurement": "Mouse therapeutic dose", "setting": "[1]", "value": "<15", "unit": "mg/kg/day"}, {"measurement": "Selectivity against relative off-targets: no Pyk2 activation at multiple of FAK activation", "setting": "Pyk2", "value": "activation at >1000 × × FAK activation"}, {"measurement": "Therapeutic Index", "setting": "mice", "value": "Index: ~10^6"}, {"measurement": "Selectivity against relative off-targets: no Src activation at multiple of FAK activation", "setting": "Src", "value": "activation at >1000 × × FAK activation"}, {"measurement": "B/P ratio", "setting": "[2]", "value": "B/P ratio <0.15"}]}]}
